Reference: ChEMBL document CHEMBL4396916, “Novel potent substituted 4-amino-2-thiopyrimidines as dual VEGFR-2 and BRAF kinase inhibitors” (Eur J Med Chem, 2019)

Tests used:
Homo sapiens [1] = organism: Homo sapiens; test: Selectivity ratio of IC50 for FGFR1 (unknown origin) to IC50 for human wild type BRAF
Homo sapiens [2] = organism: Homo sapiens; test: Selectivity ratio of IC50 for FGFR1 (unknown origin) to IC50 for human N-terminal GST tagged VEGFR-2 expressed in baculovirus infected Sf9 cells
Homo sapiens [3] = organism: Homo sapiens; test: Selectivity ratio of IC50 for TIE2 (unknown origin) to IC50 for human wild type BRAF
Homo sapiens [4] = organism: Homo sapiens; test: Selectivity ratio of IC50 for c-kit (unknown origin) to IC50 for human N-terminal GST tagged VEGFR-2 expressed in baculovirus infected Sf9 cells
Homo sapiens [5] = organism: Homo sapiens; test: Selectivity ratio of IC50 for PDGFR beta (unknown origin) to IC50 for human N-terminal GST tagged VEGFR-2 expressed in baculovirus infected Sf9 cells
Homo sapiens [6] = organism: Homo sapiens; test: Selectivity ratio of IC50 for c-kit (unknown origin) to IC50 for human wild type BRAF
Homo sapiens [7] = organism: Homo sapiens; test: Selectivity ratio of IC50 for RAF1 (unknown origin) to IC50 for human wild type BRAF
Homo sapiens [8] = organism: Homo sapiens; test: Selectivity ratio of IC50 for PDGFR beta (unknown origin) to IC50 for human wild type BRAF
Homo sapiens [9] = organism: Homo sapiens; test: Selectivity ratio of IC50 for TIE2 (unknown origin) to IC50 for human N-terminal GST tagged VEGFR-2 expressed in baculovirus infected Sf9 cells
Homo sapiens [10] = organism: Homo sapiens; test: Selectivity ratio of IC50 for RAF1 (unknown origin) to IC50 for human N-terminal GST tagged VEGFR-2 expressed in baculovirus infected Sf9 cells

Measured: Ratio IC50

CCOC(=O)c1ccc(Nc2ccnc(SCC(=O)c3ccc(C#N)cc3)n2)cc1
1.5 to 3: Homo sapiens [1] | Homo sapiens [2] | Homo sapiens [3] | Homo sapiens [4] | Homo sapiens [5] | Homo sapiens [6] | Homo sapiens [7] | Homo sapiens [8] | Homo sapiens [9] | Homo sapiens [10]
